Test results taken from patent US20260137794A1, “LIGAND-DRUG CONJUGATE AND USE THEREOF” (SYSTIMMUNE, INC., priority 2022, published 2026).

Protein sequences, listed by entry. Tags and fused reporters are not part of them. Residues count along the entry.
UniProt P20138, 18-364: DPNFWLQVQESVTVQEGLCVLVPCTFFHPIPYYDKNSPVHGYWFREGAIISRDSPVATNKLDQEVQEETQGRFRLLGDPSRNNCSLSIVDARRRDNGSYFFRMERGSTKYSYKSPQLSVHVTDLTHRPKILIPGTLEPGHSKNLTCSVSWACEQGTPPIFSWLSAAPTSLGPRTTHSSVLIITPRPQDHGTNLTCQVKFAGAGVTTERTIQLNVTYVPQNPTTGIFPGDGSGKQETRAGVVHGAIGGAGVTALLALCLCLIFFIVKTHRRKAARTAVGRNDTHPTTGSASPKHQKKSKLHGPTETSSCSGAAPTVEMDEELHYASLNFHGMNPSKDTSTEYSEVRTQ

How the values were obtained:
[1] = tested on: HEL92.1.7; assay: CD33 cell killing experiment by MTS method, HEL92.1.7; format: cell-based, Human; conditions: HEL92.1.7, CD33 high expression, 5 days, read-out: Test drug IC50
Procedure: (§1) Pharmacodynamic test at cellular level: cell plating was performed on a 96-well plate in a certain density. After the cells adhered to the wall (usually taking at least 4 h), a series of drugs in several folds of dilution were added to each well plate to act for a certain period of time, for killing the cells. At the end of action of the drugs, a certain amount of MTS was added to react at 37° C. under 5% CO2 for 1-4 h. After color development using the MTS reagent, the OD 490 nm absorbance value was detected using a microplate reader, and then the IC50 for cell killing was analyzed and calculated.
(§2) Before addition, according to the concentration of each test sample, a drug (5×mother liquor concentration) was prepared using a preheated 1% FBS culture medium according to the initial concentration of 5.0 μM, and then diluted according to 10 folds of gradient concentration, totaling 8 detection points, followed by standing for later use. During the preparation, each concentration was uniformly mixed using an oscillator, specifically, oscillating for 2-3 sec at a time, with an interval of 1 sec, and then oscillating again, repeating 2-3 times.
(§3) The final concentration of the antibody and the antibody conjugated drug was 0 (Vehicle), 0.6 pM, 4.25 pM, 29.75 pM, 0.21 nM, 1.46 nM, 10.20 nM, 71.43 nM, 500 nM.
(§4) • 1) Cell revival: after preheating in a 37° C.′ water bath, 9 mL of the culture medium was taken and put in a centrifuge tube for later use; the cells were taken out from liquid nitrogen, immediately quickly shaked at 37° C.′ to fully thaw, then transferred into the centrifuge tube, and centrifuged at 1000 rpm for 3 min at room temperature: the supernatant was discarded, and the precipitate was re-suspended with 1 mL of complete culture medium, where the process should be gentle, to prevent bubbles from being blown out, thereby reducing damage to the cells; the cells were transferred into a culture flask, and cultivated in a cell incubator at 37° C., 5% CO2 and 95% relative humidity. […]

[2] = tested on: CMK; assay: CD33 cell killing experiment by MTS method, CMK; format: cell-based, Human; conditions: CD33 moderate expression, 5 days, read-out: Test drug IC50
Procedure: as §1, §2, §3, §4

[3] = tested on: U937; assay: CD33 cell killing experiment by MTS method, U937; format: cell-based, Human; conditions: U937, CD33 moderate expression, 5 days, read-out: Test drug IC50
Procedure: as §1, §2, §3, §4

[4] = tested on: HL-60; assay: CD33 cell killing experiment by MTS method, HL-60; format: cell-based, Human; conditions: HL-60, CD33 moderate expression, 5 days, read-out: Test drug IC50
Procedure: as §1, §2, §3, §4

[5] = tested on: A431; assay: CD33 cell killing experiment by MTS method, A431; format: cell-based, Human; conditions: A431, CD33 negative, 5 days, read-out: Test drug IC50
Procedure: as §1, §2, §3, §4

[6] = tested on: multiple AML cell strains; assay: CD33 cell killing experiment, conclusion over the cell models; format: cell-based, Human; conditions: in words; MTS
Procedure: as §1, §4

[7] = target: recombinant human CD33 protein (Homo sapiens, UniProt P20138); assay: Binding of anti-CD33 antibody-drug conjugate to recombinant human CD33 protein by ELISA; conditions: in words, 3-fold gradient from 2 μg/mL
Procedure: The binding ability of antibody to antigen can be preliminarily judged by ELISA. Here, recombinant human CD33 protein was immobilized on an enzyme strip, and tested with the addition of a series of concentration gradients of CD33 antibody. • 1. Coating: coating with CD33 diluted to 0.5 ng/ml, using 1×PBS, at 100 μL per well, at 4° C. overnight. • 2. Plate washing: washing the plate with a plate wash buffer (1×PBS+0.05% Tween 20) 3 times, at 200 μL per well, while standing for 1 min each time. • 3. Sealing: after the 3rd patting-dry of the wash buffer, sealing with a sealing buffer (1/PBS+0.05% Tween20+1% BSA), at 200 μL per well, at 37° C. for 1 h. • 4. Plate washing: washing the plate with the plate wash buffer 3 times, at 200 μL per well, while standing for 1 min each time. • 5. Primary antibody loading: diluting the antibody-drug conjugate (same as Test example 1) at a 3-fold gradient from 2 μg/mL using a sample diluent (1×PBS+0.05% Tween20+1% BSA); washing the plate with the plate wash buffer 3 times, at 200 μL per well, while standing for 1 min each time. • 6. Secondary antibody loading: diluting Solarbio rabbit anti-human antibody at a ratio of 1:10000 with an assay buffer (1<PBS+0.05% Tween20+1% BSA) to 100 μL per well, while standing at 37° C. for 1 h. • 7. Plate washing: washing the plate with the plate wash buffer 3 times, at 200 μL per well, while standing for 1 min each time. • 8. Reading: after 7 min of color development with the addition of a TMB color development liquid (50 μL per well), adding 2M H2SO4 (50 μL per well) to terminate it. Plate reading using a microplate reader at 450 nm.

Molecule | IC50 [1] [nM] | IC50 [2] [nM] | IC50 [3] [nM] | IC50 [4] [nM] | IC50 [5] [nM] | killing activity against the multiple AML cell strains [6] | binding ability to recombinant human CD33 protein, compared with naked anti-CD33 antibody [7]
ANTI-CD33 mAb: Naked anti-CD33 antibody; light chain SEQ ID NO: 1, heavy chain SEQ ID NO: 2 (antibody) heavy: EVQLVQSGAEVKKPGSSVKVSCKASGYTITDSNIHWVRQAPGQSLEWIGYIYPYNGGTDYNQKFKNRATLTVDNPTNTAYMELSSLRSEDTAFYYCVNGNPWLAYWGQGTLVTVSSASTKGPSVFPLAPSSKSTSGGTAALGCLVKDYFPEPVTVSWNSGALTSGVHTFPAVLQSSGLYSLSSVVTVPSSSLGTQTYICNVNHKPSNTKVDKRV[human IgG1 Fc not spelt out] light: DIQLTQSPSTLSASVGDRVTITCRASESLDNYGIRFLTWFQQKPGKAPKLLMYAASNQGSGVPSRFSGSGSGTEFTLTISSLQPDDFATYYCQQTKEVPWSFGQGTKVEVKRTVAAPSVFIFPPSDEQLKSGTASVVCLLNNFYPREAKVQWKVDNALQSGNSQESVTEQDSKDSTYSLSSTLTLSKADYEKHKVYACEVTHQGLSSPVCTKSFNRGEC | > 500 | > 500 | > 500 | > 500 | > 500 | no significant killing activity | 
ANTI-CD33-Ex01 (2)-R01-1 (8) (conjugate) light: DIQLTQSPSTLSASVGDRVTITCRASESLDNYGIRFLTWFQQKPGKAPKLLMYAASNQGSGVPSRFSGSGSGTEFTLTISSLQPDDFATYYCQQTKEVPWSFGQGTKVEVKRTVAAPSVFIFPPSDEQLKSGTASVVCLLNNFYPREAKVQWKVDNALQSGNSQESVTEQDSKDSTYSLSSTLTLSKADYEKHKVYACEVTHQGLSSPVCTKSFNRGEC heavy: EVQLVQSGAEVKKPGSSVKVSCKASGYTITDSNIHWVRQAPGQSLEWIGYIYPYNGGTDYNQKFKNRATLTVDNPTNTAYMELSSLRSEDTAFYYCVNGNPWLAYWGQGTLVTVSSASTKGPSVFPLAPSSKSTSGGTAALGCLVKDYFPEPVTVSWNSGALTSGVHTFPAVLQSSGLYSLSSVVTVPSSSLGTQTYICNVNHKPSNTKVDKRV[human IgG1 Fc not spelt out] |  |  |  |  |  |  | basically the same
ANTI-CD33-Ex01 (10) (conjugate) light: DIQLTQSPSTLSASVGDRVTITCRASESLDNYGIRFLTWFQQKPGKAPKLLMYAASNQGSGVPSRFSGSGSGTEFTLTISSLQPDDFATYYCQQTKEVPWSFGQGTKVEVKRTVAAPSVFIFPPSDEQLKSGTASVVCLLNNFYPREAKVQWKVDNALQSGNSQESVTEQDSKDSTYSLSSTLTLSKADYEKHKVYACEVTHQGLSSPVCTKSFNRGEC heavy: EVQLVQSGAEVKKPGSSVKVSCKASGYTITDSNIHWVRQAPGQSLEWIGYIYPYNGGTDYNQKFKNRATLTVDNPTNTAYMELSSLRSEDTAFYYCVNGNPWLAYWGQGTLVTVSSASTKGPSVFPLAPSSKSTSGGTAALGCLVKDYFPEPVTVSWNSGALTSGVHTFPAVLQSSGLYSLSSVVTVPSSSLGTQTYICNVNHKPSNTKVDKRV[human IgG1 Fc not spelt out] | 10.1 | 11.5 | 31.6 | 5.39 | 87.2 |  | basically the same
